Values quoted from earlier work, collected in patent US20080045610A1, “Methods for regulating neurotransmitter systems by inducing counteradaptations” (priority 2004, published 2008).

Protein sequences, listed by entry. Tags and fused reporters are not part of them. Lines headed by an entry give the natural chain unless they say otherwise; changes in a name come on top.
UniProt P41145: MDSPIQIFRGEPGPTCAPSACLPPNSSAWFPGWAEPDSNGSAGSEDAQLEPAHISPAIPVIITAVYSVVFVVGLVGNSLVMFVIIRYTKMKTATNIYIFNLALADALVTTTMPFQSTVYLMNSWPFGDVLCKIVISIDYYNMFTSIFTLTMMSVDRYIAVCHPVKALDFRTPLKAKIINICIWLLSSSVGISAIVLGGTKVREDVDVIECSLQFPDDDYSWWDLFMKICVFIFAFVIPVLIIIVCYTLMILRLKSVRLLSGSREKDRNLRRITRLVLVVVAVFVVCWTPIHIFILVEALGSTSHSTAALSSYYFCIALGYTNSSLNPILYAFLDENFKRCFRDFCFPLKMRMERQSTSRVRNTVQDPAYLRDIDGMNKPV

Molecular target: kappa receptor (Homo sapiens, UniProt P41145)

CN(C(=O)Cc1cccc2occc12)[C@H]1CC[C@@]2(CCCO2)C[C@@H]1N1CCCC1
oral dose with pharmaceutical activity: 1 to 10 mg/kg
